Target: Broad substrate specificity ATP-binding cassette transporter ABCG2 (Homo sapiens, UniProt Q9UNQ0)
Assay: Inhibition of human BCRP expressed in MDCK2 cells assessed as Hoechst 33342 accumulation treated 30 mins before Hoechst 33342 addition measured up to 120 mins by fluorescence assay
Assay type: cell-based, MDCK-II

Amino acid sequences for entries named in this document (tags omitted). A change or cut given only in a name is not applied to a line headed by its entry.
UniProt Q9UNQ0: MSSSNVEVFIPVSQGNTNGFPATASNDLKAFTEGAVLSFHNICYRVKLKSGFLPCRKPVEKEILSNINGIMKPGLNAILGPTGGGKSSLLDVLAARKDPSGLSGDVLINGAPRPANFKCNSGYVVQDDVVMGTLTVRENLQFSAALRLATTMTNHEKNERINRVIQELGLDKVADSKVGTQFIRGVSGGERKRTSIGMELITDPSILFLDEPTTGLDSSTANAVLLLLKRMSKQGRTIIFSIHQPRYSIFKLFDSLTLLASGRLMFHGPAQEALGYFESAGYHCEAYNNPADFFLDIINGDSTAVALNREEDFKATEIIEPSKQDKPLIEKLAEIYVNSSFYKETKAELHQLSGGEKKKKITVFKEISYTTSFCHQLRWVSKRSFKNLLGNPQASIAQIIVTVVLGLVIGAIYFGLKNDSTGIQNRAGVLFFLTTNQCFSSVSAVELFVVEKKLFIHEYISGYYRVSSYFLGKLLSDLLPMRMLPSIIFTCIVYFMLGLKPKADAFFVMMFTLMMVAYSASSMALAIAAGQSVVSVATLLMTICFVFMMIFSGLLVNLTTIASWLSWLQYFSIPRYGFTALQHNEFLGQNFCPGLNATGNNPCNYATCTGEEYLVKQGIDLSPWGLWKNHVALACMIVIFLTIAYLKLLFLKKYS

IC50: 3.19 µM
Structure (SMILES): COc1cc2ncnc(Nc3ccc(F)c(Cl)c3)c2cc1OCCCN1CCOCC1 [GEFITINIB]
